Laboratory results as given in US9771592B2, “Methods and compositions for treating or preventing pruritis” (The Johns Hopkins University, priority 2008, dated 2017).

Test system: rat DRG neurons
Assay: Calcium imaging of cultured rat DRG neurons

CCN(CC)CCCC(C)Nc1ccnc2cc(Cl)ccc12 (stereo not shown) [CQ, Chloroquine]
percentage of total rat DRG neurons responding: 15%
